The text below walks through data of patent publication US10813788B2, “Implantable therapeutic device” (ForSight Vision4, Inc., priority 2009, dated 2020).

Read-outs that look alike come from different tables or passages of the source.

Series [1] is described as follows: Release of BSA through sintered porous titanium cylinder, Example 5. As to conditions: titanium cylinder 0.062 x 0.039 in, 0.2 media grade; 300 mg/mL BSA, 100 uL, room temperature; fit to 180 days.
Series [2] can be described thus: Release of BSA through sintered porous stainless steel cylinder (media grade 0.2), Example 8. As to conditions: 316L stainless steel cylinder 0.031 x 0.049 in, 0.2 media grade, 300 mg/mL BSA, 17 uL, 37° C.
The conditions of series [3]: models of proteins of therapeutic interest; cited from earlier work.
Series [4] can be described thus: Diffusion coefficients in water (literature value and estimate by equation). The format is physicochemical. Conditions: 37 C; estimated from the BSA value by MW and viscosity equation. From the text: If the reservoir solution is aqueous or has a viscosity similar to water, the value for the diffusion coefficient of the therapeutic agent (TA) in water at the temperature of interest may be used. […] (Molokhia et al, Exp Eye Res 2008): DTA,37C=DBSA,20C(η20C/η37C)(MWBSA/MWTA)^1/3 where MW refers to the molecular weight of either BSA or the test compound and η is the viscosity of water.
Small molecules have a diffusion coefficient similar to fluorescein (MW=330, D=4.8 to 6 e-6 cm^2/s from Stay, M S et al. Pharm Res 2003, 20(1), pp. 96-102). For example, the small molecule may comprise a glucocorticoid such as triamcinolone acetonide having a molecular weight of about 435.

The conditions of series [5]: in water at 20 C, measured value of Molokhia et al, Exp Eye Res 2008, cited from earlier work.

With bovine serum albumin [BSA], in series [1], the “Release Rate Index” value amounted to 0.21 mm. Further, the “PA/FL ratio (Release Rate Index)” value in series [2] (FIG. 18A) is on record as 0.0475 mm; in series [2] (for 180 days, FIG. 18B), 0.038 mm. In addition, in series [3], the diameter is reported as 7.2 nm. The results for the “Diff Coeff” value in series [4], in series [5] and in series [5] (listed as bovine serum albumin) were 9.1E−07 cm^2/s, 6.1E−07 cm^2/s and 6.1 e-7 cm^2/s, respectively.
